From ChEMBL document CHEMBL1122316, “Different receptor sites mediate opioid agonism and antagonism” (J Med Chem, 1983)

Legend:
[1] = Compound was evaluated for equilibrium constant, Ke; type: ADME
[2] = Compound was tested for ability to protect against the irreversible antagonism of morphine''s effects by beta-FNA in guinea pig ileum at 3 nM concentration

Row | Compound | Ke [1] | Ratio [2]
1 | CN1CC[C@]23c4c5ccc(O)c4O[C@H]2[C@@H](O)C=C[C@H]3[C@H]1C5 | 88 | 
2 | CO[C@]12CC[C@@]3(C[C@@H]1C(C)(C)O)[C@H]1Cc4ccc(O)c5c4[C@@]3(CCN1CC1CC1)[C@H]2O5 [listing 1 of 2 here] | 0.13 | 
3 | CO[C@]12CC[C@@]3(C[C@@H]1C(C)(C)O)[C@H]1Cc4ccc(O)c5c4[C@@]3(CCN1CC1CC1)[C@H]2O5 [listing 2 of 2 here] |  | 1.8
